test: In vivo inhibition of LTD4-induced bronchospasm in guinea pig at dose of 50 mg/kg; settings: Cavia porcellus

| SMILES | inhibition [%] |
| --- | --- |
| COC(=O)CCCC(=O)Nc1cccc(OCc2ccc3ccccc3n2)c1 | -6 |
| COC(=O)CCC(=O)Nc1cccc(COc2ccc3ccccc3c2)c1 | 1 |
| CCOC(=O)CC(=O)Nc1cccc(OCc2ccc3ccccc3n2)c1 | 84 |
| COC(=O)CCC(=O)Nc1cccc(OCc2ccc3ccccc3n2)c1C | 3 |
| COC(=O)CC(=O)Nc1cccc(OCc2ccc3ccccc3n2)c1 | 96 |
